According to patent US11510929B2, “Mitigation of epileptic seizures by combination therapy using benzodiazepines and neurosteroids” (dated 2022):

Test: Tail cuff blood pressure in mice
Conditions: dose required to prevent TETS-induced tonic seizures and death when administered singly

CN1C(=O)CN=C(c2ccccc2)c2cc(Cl)ccc21
effect on blood pressure, single agent: significant hypotension
